Values quoted from earlier work as cited in patent US6984404B1, “Methods for preparing coated drug particles and pharmaceutical formulations thereof” (University of Florida Research Foundation, Inc., priority 1998, dated 2006).

Settings: cited from earlier work

Structure (SMILES): CCCC1O[C@@H]2C[C@H]3[C@@H]4CCC5=CC(=O)C=C[C@]5(C)[C@H]4[C@@H](O)C[C@]3(C)[C@]2(C(=O)CO)O1 (some centres unmarked) [Budesonide, budesonide]
- pulmonary deposition ratio, DPI (dry powder inhaler): 32%
- pulmonary deposition ratio, MDI (metered dose inhaler (TA: Azmacort MDI with spacer)): 15%
